Assay results as given in patent US20260116867A1, “PROTEOLYSIS TARGETING CHIMERAS FOR HUMAN PREGNANE X RECEPTOR AND FOR DEGRADATION OF GSPT1” (ST. JUDE CHILDREN'S RESEARCH HOSPITAL, priority 2022, published 2026).

Chains of the proteins cited; added tags and fusions are not shown. Residues count along the entry.
UniProt O75469, whole entry: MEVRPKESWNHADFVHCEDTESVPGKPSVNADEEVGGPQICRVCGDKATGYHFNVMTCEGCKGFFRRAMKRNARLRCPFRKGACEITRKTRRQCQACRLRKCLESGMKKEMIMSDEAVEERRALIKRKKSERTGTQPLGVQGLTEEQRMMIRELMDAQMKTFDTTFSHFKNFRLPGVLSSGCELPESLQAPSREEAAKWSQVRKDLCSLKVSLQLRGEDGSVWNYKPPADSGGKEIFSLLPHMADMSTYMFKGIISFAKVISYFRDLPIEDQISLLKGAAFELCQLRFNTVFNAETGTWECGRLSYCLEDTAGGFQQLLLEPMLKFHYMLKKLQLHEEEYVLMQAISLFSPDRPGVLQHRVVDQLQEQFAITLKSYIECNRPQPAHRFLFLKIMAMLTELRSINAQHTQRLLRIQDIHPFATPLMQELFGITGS
UniProt P15170, 1-637 isoform 3: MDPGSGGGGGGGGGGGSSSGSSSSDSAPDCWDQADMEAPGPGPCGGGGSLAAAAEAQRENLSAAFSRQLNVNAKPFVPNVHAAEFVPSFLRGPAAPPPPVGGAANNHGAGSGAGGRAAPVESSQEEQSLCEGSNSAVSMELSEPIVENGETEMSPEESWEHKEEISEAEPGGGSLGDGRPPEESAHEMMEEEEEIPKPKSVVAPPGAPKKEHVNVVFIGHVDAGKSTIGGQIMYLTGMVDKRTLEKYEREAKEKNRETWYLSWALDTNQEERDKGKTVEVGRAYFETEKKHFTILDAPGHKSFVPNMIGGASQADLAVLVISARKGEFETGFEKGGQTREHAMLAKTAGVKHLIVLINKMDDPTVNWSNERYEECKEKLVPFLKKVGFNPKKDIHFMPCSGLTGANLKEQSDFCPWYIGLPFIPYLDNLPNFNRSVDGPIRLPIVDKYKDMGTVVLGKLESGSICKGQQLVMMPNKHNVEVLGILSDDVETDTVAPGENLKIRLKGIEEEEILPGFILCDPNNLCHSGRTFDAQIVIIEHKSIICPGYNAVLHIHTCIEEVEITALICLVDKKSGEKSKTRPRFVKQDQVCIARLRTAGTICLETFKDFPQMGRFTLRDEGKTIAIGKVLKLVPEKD

Columns and labels:
hPXR = hPXR (Homo sapiens, UniProt O75469); assay: cell-based hPXR inverse agonistic assay
His-CRBN/DDB1 = His-CRBN/DDB1 (Homo sapiens, UniProt Q96SW2); assay: TR-FRET CRBN competitive binding assay (BODIPY FL thalidomide probe); details: FIG. 9D
GSPT1 = GSPT1 (Homo sapiens, UniProt P15170+Q96SW2); assay: Western blot of GSPT1 protein in SNU—C4 3xFLAG-PXR KI cells

Inverse agonist (% inhibition at 10 μM) (hPXR; 10 μM, SPA70 at 10 μM as 100% inhibition, DMSO (0.3%) as 0%) | IC50 (hPXR; read-out: Inverse agonist (IC50/μM), NA = no IC50 within concentration range tested (highest 30 μM)) [µM] | Structure (SMILES) | CRBN binding (in words) (His-CRBN/DDB1) | GSPT1 Loss at 10 μM (% ± SD) (GSPT1; 10 μM compound, calculated from western blots FIG. 9A) [%] | GSPT1 degradation (in words) (GSPT1; western blot, SNU—C4 3xFLAG-PXR KI cells)
(42 ± 6)% | 10.3 | COc1ccc(OC)c(-n2nnc(C(=O)Nc3cc(OCCCc4cn(CCCCNC(=O)COc5cccc6c5C(=O)N(C5CCC(=O)NC5=O)C6=O)nn4)cc(C(C)(C)C)c3)c2C)c1 (centres unmarked) | – | – | –
– | – | COc1ccc(OC)c(-n2nnc(C(=O)Nc3cc(NC(=O)Nc4cccc5c4C(=O)N(C4CCC(=O)NC4=O)C5=O)cc(C(C)(C)C)c3)c2C)c1 (centres unmarked) | greatly reduced CRBN binding | 85 ± 2.2 | strong GSPT1 degradation activity
